Earlier results in patent US6979727B2, “Recombinant conglutinin and producing method thereof” (Fuso Pharmaceutical Industries, Ltd., priority 1995, dated 2005).
Where two headings read alike, the source gives them in different places.

Biological target: T1, Native Conglutinin (Bos taurus, UniProt P23805, K210S)
T1 sequence (P23805 21-371 K210S): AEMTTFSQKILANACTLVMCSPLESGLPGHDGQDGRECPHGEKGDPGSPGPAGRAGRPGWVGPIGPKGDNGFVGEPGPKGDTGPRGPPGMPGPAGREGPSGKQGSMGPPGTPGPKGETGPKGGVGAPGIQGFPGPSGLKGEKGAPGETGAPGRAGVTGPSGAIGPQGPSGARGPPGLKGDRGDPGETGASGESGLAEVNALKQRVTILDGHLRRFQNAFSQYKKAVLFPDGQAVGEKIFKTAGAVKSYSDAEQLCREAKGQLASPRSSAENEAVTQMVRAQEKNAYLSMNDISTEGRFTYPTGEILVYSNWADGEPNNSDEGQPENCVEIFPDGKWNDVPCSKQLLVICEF
Details: cited from earlier work

[1] = read-out: I50, sugar concentration to halve binding activity with mannan, Lu, J. et al., Biochem. J., vol. 284, pp. 795-802 (1992)
[2] = Lu, J. et al., Biochem. J., vol. 284, pp. 795-802 (1992), read-out: I50, sugar concentration to halve binding activity with mannan

Row | Structure (SMILES) | IC50 [1] | IC50 [2]
1 | O=C[C@@H](O)[C@@H](O)[C@H](O)[C@H](O)CO [D-Mannose] | 19.5 mM | 
2 | C[C@H](O)[C@@H](O)[C@@H](O)[C@H](O)C=O [Fucose] |  | 41.5 mM
3 | O=C[C@H](O)[C@@H](O)[C@@H](O)[C@H](O)CO [Galactose] | > 100 mM | 
4 | OC[C@H]1O[C@H](O[C@H]2[C@H](O)[C@@H](O)[C@H](O)O[C@@H]2CO)[C@H](O)[C@@H](O)[C@@H]1O [Maltose] |  | 49 mM
5 | CC(=O)N[C@H]1C(O)O[C@H](CO)[C@@H](O)[C@@H]1O (stereo partly drawn) [N-Acetyl-D-Glucosamine] |  | 1.4 mM
